From patent US20250034165A1, “COMPOUND CONTAINING CYCLOALKYL OR HALOALKYL” (CHIA TAI TIANQING PHARMACEUTICAL GROUP CO., LTD., priority 2021, published 2025) come the findings set out here.

The nature of series [1]: In vitro stability in liver microsomes. The conditions noted are these: Human liver microsome. The method, then:
300 μL of the final incubation system contains 30 μL of liver microsomes (protein concentration: 0.15 mg/mL), 30 μL of NADPH+MgCl2, 3 μL of the test compound (in acetonitrile), and 237 μL of PBS buffer (pH 7.4). The proportion of the organic solvent (acetonitrile) was 1%. Samples were prepared in duplicate of 0.3 mL for each species (e.g., human or mouse liver microsomes). Tubes each containing 270 μL of a mixed solution of substrate and enzyme […] were pre-incubated at 37° C. for 5 min. 30 μL of NADPH+MgCl2 was added and the mixture was mixed. 50 μL of the mixture was taken at 0 min, 15 min, 30 min, and 60 min, and 300 μL of glacial acetonitrile containing an internal standard was added to terminate the reaction.
50 μL of the incubated sample was added with 300 μL of glacial acetonitrile containing an internal standard (20 ng/mL diazepam) for precipitation. The mixture was vortexed for 5 min, and centrifuged (12,000 rpm, 4° C.) for 10 min. 75 μL of supernatant was taken and diluted with 75 μL of ultrapure water. After being homogeneously mixed, 0.5 μL of the resulting sample was injected for analysis.

Series [2] deals with PC-9 EGFR-Del19-T790M-C797S cells. Nature of the series: Inhibition of proliferation of PC-9-EGFR (Del19 T790M C797S) cells, CCK-8. As to conditions: read-out: PC-9-EGFR (Del19 T790M C797S) cell inhibitory activity IC50, 72 h. The method, then:
PC-9 EGFR-Del19-T790M-C797S cells in the logarithmic growth phase and good conditions were taken, washed with PBS, digested with pancreatin, terminated with a complete medium, collected and added to a centrifuge tube, adjusted to a cell density of 2×10^4 cells/mL, and seeded in a 96-well plate (100 μL/well). Meanwhile, compounds were loaded using a nanoliter pipettor resulting in the final concentrations of the compounds of 1000 nM-0.06 nM, and a control was set, replicate wells for each concentration. After 72 h of incubation in the cell incubator, the assay reagent CCK-8 (manufacturer: Dojindo Laboratories, Beijing; 10 μL/well) was added. After 2 h of incubation in the cell incubator, absorbance was measured at 450 nm on a PerkinElmer Envision microplate reader, and the inhibition rate was calculated.
Inhibition rate (%)=(mean value of negative control group-mean value of experimental group)/(mean value of negative control group−mean value of blank group)×100%.
A dose-response curve was fitted by four-parameter analysis, with the logarithm of compound concentration serving as abscissa and inhibition rate serving as ordinate, such that IC50 was calculated.

A value given as a limit tells only on which side of the number the result lay.

Consider `Cc1cc2cc(n1)-c1cnn(C3CC3)c1OCCC[C@@H](C)CN1C(=NC2=O)Nc2ccc(NC3CCN(C)CC3)cc21`, for which, in series [1], the “Stability in liver microsomes (residual %, T = 60 min)” value was 86.29%. On to `Cc1cc2cc(n1)-c1cnn(C)c1OCCC[C@@H](C1CC1)CN1C(=NC2=O)Nc2cc(NC(C)C3COC3)ccc21` (single isomer, unassigned), for which the 50% inhibitory concentration (IC50) (usually the concentration that gives 50% inhibition) in series [2] was less than 50 nM.
